{
  "source": "patent US10023652B2",
  "about": "“Method of targeting glycoproteins to treat cancer” (Board of Regents of the University of Nebraska, priority 2013, dated 2018)",
  "origin": "cited, not measured here",
  "test_system": "breast cancer patients",
  "conditions": "along with cytotoxic agents; cited from earlier work",
  "data": [
    {"substance": "Herceptin: ErbB2-specific mAb", "values": [
      {"measurement": "overall patient survival", "value": "significant improvement in overall patient survival"}
    ]}
  ]
}
